Assay results: patent publication US20250213711A1, “ANTI-CANAG ANTIBODY CONJUGATE” (IKSUDA THERAPEUTICS LIMITED, priority 2022, published 2025)

Test system: NCI-N87 gastric cancer xenograft
Assay: In vivo efficacy study in NCI-N87 xenograft model
Set-up: species or system mice
Settings: for TGI [%] at 33 day: day 33
From the text: The ADC non-binding control was an anti-CD19 ADC (DAR 2.0) composed of the same linker-drug combination as ADC-3.

Enhertu
time after which tumour regrowth was observed (1 mg/kg (53 nmol/kg)): > 28 days | TGI [%] at 33 day (single intravenous dose 0.2 mg/kg): 4% | TGI [%] at 33 day (single intravenous dose 0.5 mg/kg): 46%
